# Measured values reported in patent publication EP1100824B1, “COMPOUNDS WITH GROWTH HORMONE RELEASING PROPERTIES” (NOVO NORDISK A/S, priority 1998, dated 2011).
# Key:
# [1] = tested on: Carboxypeptidase mix: carboxypeptidase Y and B; assay: Metabolic stability in carboxypeptidase mix (ESMS, selected ion monitoring); conditions: stability: decrease in SIM signal after 24 h in degradation solution; carboxypeptidase Y and B 0.025 mg/ml, 50 mM ammoniumacetate pH 4.5, 37°C
# [2] = tested on: Pancreatic enzyme mix: trypsin, chymotrypsin and elastase; assay: Metabolic stability in pancreatic enzyme mix (ESMS, selected ion monitoring); conditions: stability: decrease in SIM signal after 24 h in degradation solution, chymotrypsin and elastase 0.025 mg/ml, 100 mM ammoniumbicarbonate pH 8.0, 37°C
smiles,measurement,setting,value
CSCC[C@H](NC(=O)[C@H](CC(C)C)NC(=O)[C@H](Cc1c[nH]c2ccccc12)NC(=O)[C@H](CCC(N)=O)NC(=O)[C@@H](NC(=O)[C@H](Cc1ccccc1)NC(=O)[C@H](CC(=O)O)NC(=O)[C@H](CCC(N)=O)NC(=O)[C@H](C)NC(=O)[C@H](CCCN=C(N)N)NC(=O)[C@H](CCCN=C(N)N)NC(=O)[C@H](CO)NC(=O)[C@H](CC(=O)O)NC(=O)[C@H](CC(C)C)NC(=O)[C@H](Cc1ccc(O)cc1)NC(=O)[C@H](CCCCN)NC(=O)[C@H](CO)NC(=O)[C@H](Cc1ccc(O)cc1)NC(=O)[C@H](CC(=O)O)NC(=O)[C@H](CO)NC(=O)[C@@H](NC(=O)[C@H](Cc1ccccc1)NC(=O)[C@@H](NC(=O)CNC(=O)[C@H](CCC(N)=O)NC(=O)[C@H](CO)NC(=O)[C@@H](N)Cc1c[nH]cn1)[C@@H](C)O)[C@@H](C)O)C(C)C)C(=O)N[C@@H](CC(N)=O)C(=O)N[C@H](C(=O)O)[C@@H](C)O [Glucagon],Carboxy-peptidase mix,[1],- (-: Unstable (more than 20% decrease in SIM signal after 24 h in degradation solution))
same,Pan. enzyme mix,[2],- (-: Unstable (more than 20% decrease in SIM signal after 24 h in degradation solution))
